# Tested on: LPS-stimulated human monocytes
# Test: Human monocyte cytokine secretion assay (LPS-stimulated)
# Format: cell-based
# Conditions: potency determinations
row,SMILES,"Secretion of IL-1β, TNF-α and IL-9 from LPS-stimulated human monocytes"
1,OCCn1ccc2cc(CN3CC[C@@H](Nc4cccc5cnccc45)C3)ccc21 [Compound 2.066],dose-dependently reduced
2,NC(=O)Cn1ccc2cc(CN3CC[C@@H](Nc4cccc5cnccc45)C3)ccc21 [Compound 2.059],dose-dependently reduced

# Source: US8299096B2, “Method for treating pulmonary diseases using rho kinase inhibitor compounds” (priority 2008, dated 2012)
